Laboratory results as given in patent publication US9440982B2 (Eolas Therapeutics, Inc., priority 2012, dated 2016).

Amino acid sequences for entries named in this document (tags omitted).
UniProt O43613, whole entry: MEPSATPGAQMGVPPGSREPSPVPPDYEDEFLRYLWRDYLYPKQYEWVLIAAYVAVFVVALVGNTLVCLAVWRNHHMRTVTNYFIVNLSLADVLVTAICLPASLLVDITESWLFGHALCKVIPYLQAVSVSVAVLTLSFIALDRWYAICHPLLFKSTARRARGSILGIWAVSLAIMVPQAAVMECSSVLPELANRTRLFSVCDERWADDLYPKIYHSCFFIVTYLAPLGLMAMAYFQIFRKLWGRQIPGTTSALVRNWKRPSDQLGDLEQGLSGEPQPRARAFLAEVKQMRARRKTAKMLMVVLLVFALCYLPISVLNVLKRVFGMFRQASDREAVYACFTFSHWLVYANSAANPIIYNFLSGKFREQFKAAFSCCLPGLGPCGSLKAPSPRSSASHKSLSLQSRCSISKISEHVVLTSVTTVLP

Biological target: T1, OX1 (Homo sapiens, UniProt O43613)
T1 construct: expressed in transfected cells; host or cells: CHO (CHO-OX1, kept under selection antibiotic)
Assay: Orexin receptor cell-based functional assay, [Ca2+]i by FLIPR, CHO-OX1 cells
Details: CHO-OX1 cells, [Ca2+]i by FLIPR, antagonist dose-range 0.1 nM-10 μM, EC90 of OXA; read-out: OX1

SMILES: Cc1ccc(-n2nccn2)c(C(=O)N2CCC[C@@H](C)[C@H]2CNc2ncccc2C#N)c1 [Example A90, 2-((((2S,3R)-3-Methyl-1-(5-methyl-2-(2H-1,2,3-triazol-2-yl)benzoyl)piperidin-2-yl)methyl)amino)nicotinonitrile]
- IC50: 360 nM

SMILES: Cc1ccc(-n2nccn2)c(C(=O)N2CCC[C@@H](C)[C@H]2CNc2ncc(Cl)cc2F)c1 [Example A92, ((2S,3R)-2-(((5-Chloro-3-fluoropyridin-2-yl)amino)methyl)-3-methylpiperidin-1-yl)(5-methyl-2-(2H-1,2,3-triazol-2-yl)phenyl)methanone]
- IC50: 1 nM

SMILES: Cc1ccc(-n2ccc(C)n2)c(C(=O)N2CCC[C@@H](C)[C@H]2CNc2ccc(C(F)(F)F)cn2)c1 [Example A108, ((2S,3R)-3-Methyl-2-(((5-(trifluoromethyl)pyridin-2-yl)amino)methyl)piperidin-1-yl)(5-methyl-2-(3-methyl-1H-pyrazol-1-yl)phenyl)methanone]
- IC50: 2 nM

SMILES: Cc1ccc(-c2ccc(C)cc2C(=O)N2CCC[C@@H](C)[C@H]2CNc2ccc(C(F)(F)F)cn2)nc1 [Example A118, ((2S,3R)-3-Methyl-2-(((5-(trifluoromethyl)pyridin-2-yl)amino)methyl)piperidin-1-yl)(5-methyl-2-(5-methylpyridin-2-yl)phenyl)methanone]
- IC50: 15 nM

SMILES: COc1ccc(NC[C@@H]2[C@H](C)CCCN2C(=O)c2cc(C)ccc2-n2nccn2)nc1 [Example A126, ((2S,3R)-2-(((5-Methoxypyridin-2-yl)amino)methyl)-3-methylpiperidin-1-yl)(5-methyl-2-(2H-1,2,3-triazol-2-yl)phenyl)methanone]
- IC50: 43 nM

SMILES: Cc1ccc(-n2ccc(C)n2)c(C(=O)N2CCC[C@@H](C)[C@H]2CNc2ncc(C#N)cn2)c1 [Example A131, 2-((((2S,3R)-3-Methyl-1-(5-methyl-2-(3-methyl-1H-pyrazol-1-yl)benzoyl)piperidin-2-yl)methyl)amino)pyrimidine-5-carbonitrile]
- IC50: 20 nM

SMILES: Cc1ccc(-n2nccn2)c(C(=O)N2CCC[C@@H](C)[C@H]2CNc2ccc(C3CC3)cn2)c1 [Example A136, ((2S,3R)-2-(((5-Cyclopropylpyridin-2-yl)amino)methyl)-3-methylpiperidin-1-yl)(5-methyl-2-(2H-1,2,3-triazol-2-yl)phenyl)methanone]
- IC50: 4 nM

SMILES: Cc1ccc(-n2nccn2)c(C(=O)N2CCC[C@@H](C)[C@H]2CNc2ncc(Cl)cn2)c1 [Example A147, ((2S,3R)-2-(((5-Chloropyrimidin-2-yl)amino)methyl)-3-methylpiperidin-1-yl)(5-methyl-2-(2H-1,2,3-triazol-2-yl)phenyl)methanone]
- IC50: 8 nM

SMILES: Cc1ccc(-c2ccccn2)c(C(=O)N2CCC[C@@H](C)[C@H]2CNc2nnc(C(F)(F)F)s2)c1 [Example A151, ((2S,3R)-3-Methyl-2-(((5-(trifluoromethyl)-1,3,4-thiadiazol-2-yl)amino)methyl)piperidin-1-yl)(5-methyl-2-(pyridin-2-yl)phenyl)methanone]
- IC50: 83 nM

SMILES: Cc1ccc(-n2cccn2)c(C(=O)N2CCC[C@@H](C)[C@H]2CNc2ccc(C#N)cn2)c1 [Example A155, 6-((((2S,3R)-3-Methyl-1-(5-methyl-2-(1H-pyrazol-1-yl)benzoyl)piperidin-2-yl)methyl)amino)nicotinonitrile]
- IC50: 500 nM

SMILES: Cc1ccc(-n2nccn2)c(C(=O)N2CCC[C@@H](C)[C@H]2CNc2nccc(C(F)(F)F)n2)c1 [Example A163, ((2S,3R)-3-Methyl-2-(((4-(trifluoromethyl)pyrimidin-2-yl)amino)methyl)piperidin-1-yl)(5-methyl-2-(2H-1,2,3-triazol-2-yl)phenyl)methanone]
- IC50: 71 nM

SMILES: Cc1ccc(-n2cccn2)c(C(=O)N2CCC[C@@H](C)[C@H]2CNc2ccc(C(F)(F)F)nn2)n1 [Example A164, ((2S,3R)-3-Methyl-2-(((6-(trifluoromethyl)pyridazin-3-yl)amino)methyl)piperidin-1-yl)(6-methyl-3-(1H-pyrazol-1-yl)pyridin-2-yl)methanone]
- IC50: 75 nM

SMILES: Cc1ccc(-c2ccccn2)c(C(=O)N2CCC[C@@H](C)[C@H]2CNc2ccc(C(F)(F)F)nn2)n1 [Example A165, ((2S,3R)-3-methyl-2-(((6-(trifluoromethyl)pyridazin-3-yl)amino)methyl)piperidin-1-yl)(6′-methyl-[2,3′-bipyridin]-2′-yl)methanone]
- IC50: 27 nM

SMILES: Cc1ccc(-n2nccn2)c(C(=O)N2CCC[C@@H](C)[C@H]2CNc2ncc(F)cc2F)c1 [Example A172, ((2S,3R)-2-(((3,5-Difluoropyridin-2-yl)amino)methyl)-3-methylpiperidin-1-yl)(5-methyl-2-(2H-1,2,3-triazol-2-yl)phenyl)methanone]
- IC50: 64 nM

SMILES: Cc1ccc(-n2nccn2)c(C(=O)N2CCC[C@@H](C)[C@H]2CNc2ncc(Cl)cc2F)c1 [Example A173, ((2S,3R)-2-(((5-Chloro-3-fluoropyridin-2-yl)amino)methyl)-3-methylpiperidin-1-yl)(5-methyl-2-(2H-1,2,3-triazol-2-yl)phenyl)methanone]
- IC50: 1 nM

SMILES: Cc1ccc(-n2nccn2)c(C(=O)N2CCC[C@@H](C)[C@H]2CNc2ccc(Cl)cn2)n1 [Example A178, ((2S,3R)-2-(((5-Chloropyridin-2-yl)amino)methyl)-3-methylpiperidin-1-yl)(6-methyl-3-(2H-1,2,3-triazol-2-yl)pyridin-2-yl)methanone]
- IC50: 4 nM

SMILES: Cc1ccc(-n2nccn2)c(C(=O)N2CCC[C@@H](C)[C@H]2CNc2nnc(C(F)(F)F)s2)n1 [Example A191, ((2S,3R)-3-Methyl-2-(((5-(trifluoromethyl)-1,3,4-thiadiazol-2-yl)amino)methyl)piperidin-1-yl)(6-methyl-3-(2H-1,2,3-triazol-2-yl)pyridin-2-yl)methanone]
- IC50: 43 nM

SMILES: Cc1ccc(NC[C@@H]2[C@H](C)CCCN2C(=O)c2nc(C)ccc2-n2nccn2)nc1 [Example A196, ((2S,3R)-3-Methyl-2-(((5-methylpyridin-2-yl)amino)methyl)piperidin-1-yl)(6-methyl-3-(2H-1,2,3-triazol-2-yl)pyridin-2-yl)methanone]
- IC50: 17 nM

SMILES: Cc1ccc(-c2cccnn2)c(C(=O)N2CCC[C@@H](C)[C@H]2CNc2ncc(C(F)(F)F)cn2)c1 [Example A198, ((2S,3R)-3-Methyl-2-(((5-(trifluoromethyl)pyrimidin-2-yl)amino)methyl)piperidin-1-yl)(5-methyl-2-(pyridazin-3-yl)phenyl)methanone]
- IC50: 5 nM

SMILES: C[C@@H]1CCCN(C(=O)c2cc(F)ccc2-n2nccn2)[C@@H]1CNc1ncc(C(F)(F)F)cn1 [Example A207, (5-Fluoro-2-(2H-1,2,3-triazol-2-yl)phenyl)((2S,3R)-3-methyl-2-(((5-(trifluoromethyl)pyrimidin-2-yl)amino)methyl)piperidin-1-yl)methanone]
- IC50: 11 nM

SMILES: Cc1ccc(-n2nccn2)c(C(=O)N2CCC(F)(F)C[C@H]2CNc2ccc(Cl)cn2)c1 [Example A210, (S)-(2-(((5-Chloropyridin-2-yl)amino)methyl)-4,4-difluoropiperidin-1-yl)(5-methyl-2-(2H-1,2,3-triazol-2-yl)phenyl)methanone]
- IC50: 140 nM
